{"source": "paper PMC12559310", "about": "“Tumor-targeted top1 inhibitor delivery with optimized parp inhibition in advanced solid tumors: a phase i trial of gapped scheduling” (Nature Communications, 2025)", "key": {"dog": {"test_system": "dog", "settings": "ref CRLX101 Investigators Brochure; cited from earlier work"}, "[1]": {"settings": "cited from earlier work"}, "[2]": {"experiment": "Plasma pharmacokinetics of CRLX101 (total, polymer-conjugated and polymer-unconjugated CPT)", "settings": "for Conjugated CPT Concentration: cycle 1, per subject; for AUCINF, Un (polymer-unconjugated CPT) / CMAX, Con (polymer-conjugated CPT) / CMAX, Con+Un (total CPT) / CMAX, Un (polymer-unconjugated CPT) / AUCINF, Con (polymer-conjugated CPT) / AUCINF, Con+Un (total CPT) / CL, Con+Un / T1/2, Con+Un / VSS, Con+Un: arithmetic mean"}, "rat": {"test_system": "rat", "settings": "ref CRLX101 Investigators Brochure; cited from earlier work"}, "treated subjects": {"test_system": "treated subjects", "settings": "cited from earlier work"}, "NSCLC": {"test_system": "NSCLC", "settings": "cited from earlier work"}, "[3]": {"test_system": "HER-2 negative gastric cancer", "settings": "9 patients with evaluable biopsies, 24 to 48 hours after a single dose of CRLX101; cited from earlier work"}, "[4]": {"test_system": "patients with advanced solid malignancies", "settings": "cited from earlier work"}, "bone marrow": {"test_system": "bone marrow", "settings": "preclinical models; cited from earlier work"}, "[5]": {"settings": "Cycle 1, N 24, CRLX101 12 mg/m2 1 h IV infusion"}, "[6]": {"settings": "CRLX101 plus BSC group (10 subjects)"}}, "note": "Values joined by “and” are separate entries in the source; they are usually repeats but may differ in a detail not shown here. Equal entries are not always repeated. Where two headings read alike, the source gives them in different places."}
{"substance": "Poly-CD-PEG-Camptothecin [CRLX101]", "values": [{"measurement": "Dose-limiting toxicity", "setting": "dog", "value": "largely body weight losses"}, {"measurement": "stability of vials", "setting": "[1]; stored at refrigerated conditions (2° - 8°C)", "value": "at least 3 years"}, {"measurement": "stability of the reconstituted solution", "setting": "[1]; stored at room temperature", "value": 24, "unit": "h"}, {"measurement": "Conjugated CPT Concentration", "setting": "[2]; 0.5 hours after start of first CRLX101 dose", "value": "3119.29 ng/mL and 2451.39 ng/mL and 2241.49 ng/mL and 2750.17 ng/mL and 2734.98 ng/mL and 2981.64 ng/mL"}, {"measurement": "Conjugated CPT Concentration", "setting": "[2]; 1 hours after start of first CRLX101 dose", "value": "5569.85 ng/mL and 5050.3 ng/mL and 6129.31 ng/mL and 5729.59 ng/mL and 6505.1 ng/mL and 5215.43 ng/mL and 6105 ng/mL and 4884.43 ng/mL"}, {"measurement": "Conjugated CPT Concentration", "setting": "[2]; 2 hours after start of first CRLX101 dose", "value": "4937.83 ng/mL and 4866.01 ng/mL and 4003.54 ng/mL and 5279.84 ng/mL and 4668.73 ng/mL and 5287.52 ng/mL and 4867.01 ng/mL and 4710.51 ng/mL"}, {"measurement": "Conjugated CPT Concentration", "setting": "[2]; 3 hours after start of first CRLX101 dose", "value": "4147.25 ng/mL and 3757.7 ng/mL and 4709.06 ng/mL and 4705.75 ng/mL and 5113.41 ng/mL and 5094 ng/mL and 4061.93 ng/mL and 4336.58 ng/mL and 3673.43 ng/mL"}, {"measurement": "Conjugated CPT Concentration", "setting": "[2]; 13 hours after start of first CRLX101 dose", "value": "2867.48 ng/mL and 3141.48 ng/mL and 3123.58 ng/mL and 2802.9 ng/mL and 3170.09 ng/mL"}, {"measurement": "Conjugated CPT Concentration", "setting": "[2]; 25 hours after start of first CRLX101 dose", "value": "1589.33 ng/mL and 1900.57 ng/mL and 2533.11 ng/mL and 2099.85 ng/mL and 1961.48 ng/mL and 1857.1 ng/mL and 1589.85 ng/mL"}, {"measurement": "Conjugated CPT Concentration", "setting": "[2]; 50 hours after start of first CRLX101 dose", "value": "628.56 ng/mL and 685.94 ng/mL and 1045.86 ng/mL and 928.07 ng/mL and 833.06 ng/mL"}, {"measurement": "AUCINF, Un (polymer-unconjugated CPT)", "setting": "[2]; Cycle 1, 4 patients excluded", "value": "25,418.6 hr*ng/mL"}, {"measurement": "CMAX, Con (polymer-conjugated CPT)", "setting": "[2]; [5]", "value": 5230, "unit": "ng/mL"}, {"measurement": "CMAX, Con+Un (total CPT)", "setting": "[2]; [5]", "value": "5,406 ng/mL"}, {"measurement": "CMAX, Un (polymer-unconjugated CPT)", "setting": "[2]; [5]", "value": 266.9, "unit": "ng/mL"}, {"measurement": "AUCINF, Con (polymer-conjugated CPT)", "setting": "[2]; Cycle 1, one patient excluded", "value": "168,737 hr*ng/mL"}, {"measurement": "AUCINF, Con+Un (total CPT)", "setting": "[2]; Cycle 1, one patient excluded", "value": "194,928 hr*ng/mL"}, {"measurement": "CL, Con+Un", "setting": "[2]; Cycle 1, one patient excluded", "value": 0.117, "unit": "L/h"}, {"measurement": "T1/2, Con+Un", "setting": "[2]; Cycle 1, one patient excluded", "value": 47.42, "unit": "h"}, {"measurement": "VSS, Con+Un", "setting": "[2]; Cycle 1, one patient excluded", "value": 6.40, "unit": "L"}, {"measurement": "AUCINF, Con (polymer-conjugated CPT)", "setting": "[2]; Cycle 6, N 5", "value": "158,014 hr*ng/mL"}, {"measurement": "AUCINF, Con+Un (total CPT)", "setting": "[2]; Cycle 6, N 5", "value": "173,181 hr*ng/mL"}, {"measurement": "CL, Con+Un", "setting": "[2]; Cycle 6, N 5", "value": 0.0944, "unit": "L/h"}, {"measurement": "CMAX, Con (polymer-conjugated CPT)", "setting": "[2]; Cycle 6, N 5", "value": "4,989 ng/mL"}, {"measurement": "CMAX, Con+Un (total CPT)", "setting": "[2]; Cycle 6, N 5", "value": "5,115 ng/mL"}, {"measurement": "CMAX, Un (polymer-unconjugated CPT)", "setting": "[2]; Cycle 6, N 5", "value": 180.6, "unit": "ng/mL"}, {"measurement": "T1/2, Con+Un", "setting": "[2]; Cycle 6, N 5", "value": 37.17, "unit": "h"}, {"measurement": "VSS, Con+Un", "setting": "[2]; Cycle 6, N 5", "value": 4.36, "unit": "L"}, {"measurement": "AUCINF, Un (polymer-unconjugated CPT)", "setting": "[2]; Cycle 6, one patient excluded", "value": "22,294.5 hr*ng/mL"}, {"measurement": "PK of CRLX101 compared with that expected for camptothecin", "setting": "[2]; comparison ref 38", "value": "lower maximum concentration, longer elimination half-life, higher area under the curve, smaller volume of distribution, and slower plasma clearance"}, {"measurement": "Dose-limiting toxicity", "setting": "rat", "value": "largely body weight losses"}, {"measurement": "Infusion-related hypersensitivity reactions", "setting": "treated subjects; 10 of the 218 subjects who received required pre-medications, all Grade 1 or 2", "value": 5, "unit": "%"}, {"measurement": "Infusion-related hypersensitivity reactions", "setting": "treated subjects; 13 of the 280 treated subjects", "value": 5, "unit": "%"}, {"measurement": "TEAE cystitis", "setting": "NSCLC; [6]", "value": 10, "unit": "%"}, {"measurement": "TEAE fatigue", "setting": "NSCLC; [6]", "value": 10, "unit": "%"}, {"measurement": "TEAE nausea", "setting": "NSCLC; CRLX101 plus BSC group (11 subjects)", "value": 11, "unit": "%"}, {"measurement": "TEAE cough", "setting": "NSCLC; CRLX101 plus BSC group (14 subjects)", "value": 14, "unit": "%"}, {"measurement": "TEAE dyspnea", "setting": "NSCLC; CRLX101 plus BSC group (17 subjects)", "value": 18, "unit": "%"}, {"measurement": "TEAE anemia", "setting": "NSCLC; CRLX101 plus BSC group (25 subjects)", "value": 26, "unit": "%"}, {"measurement": "patients with clear evidence of CPT within the post-treatment tumor", "setting": "[3]", "value": 7}, {"measurement": "patients with potential evidence of CPT in the post-treatment normal tissue", "setting": "[3]", "value": "one"}, {"measurement": "Grade 3/4 related TEAEs at time of infusion", "setting": "[4]; Study CRLX-001, 3 subjects, none received pre-medication", "value": 5, "unit": "%"}, {"measurement": "TEAE fatigue", "setting": "[4]; Study CRLX-001, all subjects (31 subjects)", "value": 50, "unit": "%"}, {"measurement": "TEAE anemia", "setting": "[4]; Study CRLX-001, all subjects", "value": 23, "unit": "%"}, {"measurement": "TEAE constipation", "setting": "[4]; Study CRLX-001, all subjects", "value": 24, "unit": "%"}, {"measurement": "TEAE cough", "setting": "[4]; Study CRLX-001, all subjects", "value": 24, "unit": "%"}, {"measurement": "TEAE cystitis", "setting": "[4]; Study CRLX-001, all subjects", "value": 27, "unit": "%"}, {"measurement": "TEAE decreased appetite", "setting": "[4]; Study CRLX-001, all subjects", "value": 23, "unit": "%"}, {"measurement": "TEAE dyspnea", "setting": "[4]; Study CRLX-001, all subjects", "value": 21, "unit": "%"}, {"measurement": "TEAE dysuria", "setting": "[4]; Study CRLX-001, all subjects", "value": 23, "unit": "%"}, {"measurement": "TEAE nausea", "setting": "[4]; Study CRLX-001, all subjects", "value": 29, "unit": "%"}, {"measurement": "Dose-limiting toxicity", "setting": "[4]; bi-weekly dosing, ref protocol [15]", "value": "myelosuppression"}, {"measurement": "time by which most CRLX101 is cleared from the bone marrow", "setting": "bone marrow", "value": "≤ 24", "unit": "h"}]}
